Results: paper PMC10527924 (Toxicology in vitro : an international journal published in …, 2023)

System: excised human skin (EHS)

Q: With `C[C@]12CC[C@H]3[C@@H](CCC4=CC(=O)CC[C@@]43C)[C@@H]1CC[C@@H]2O` [testosterone] as the compound, how does the “mass distribution at 6 h post-dosing” value read?
A: most compound remained in the donor compartment
